We go through one compound from ChEMBL document CHEMBL6071188, “Synthesis and In Vivo Profiling of Desymmetrized Antimalarial Trioxolanes with Diverse Carbamate Side Chains” (ACS Med Chem Lett, 2024).

As a reminder, the half-life is how long it takes for the measured level to halve. A lower half-life goes with rapid decline.

This data set in a line: in vivo. The conditions noted are these: rat, po, 17.4 mg/kg.

For the compound `CC(C)(N)CNC(=O)C[C@H]1CC[C@]2(CC1)OO[C@]1(O2)C2CC3CC(C2)CC1C3`, the half-life was 1.4 h.
